Assay results as given in patent US20090104119A1, “Dendrimer Based Compositions And Methods Of Using The Same” (priority 2004, published 2009).

Tested on: KB tumor
Assay: Biodistribution of fluorescent dendrimer conjugates in tumor (confocal microscopy, flow cytometry)
Format: in vivo, mice
Settings: 15 hours after i.v. injection, compared with nontargeted dendrimer
Method: Biodistribution of fluorescent dendrimer conjugates. […] Flow cytometry analysis was done with single-cell suspension isolated from tumor. Tumor was crushed, cell suspension filtered through 70 μm nylon mesh (Becton Dickinson, Franklin Lakes, N.J.), and washed with in PBS. Samples were analyzed using an EPICS XL flow cytometer (Coulter, Miami, Fla.). As determined by prior propidium iodine staining, only live cells were gated for analysis. Data were reported as the mean channel fluorescence of the cell population.
For confocal microscope imaging, tissue was dissected, embedded in OCT, and frozen in 2-methyl-butane in a dry ice bath. Sections (15 μm) were cut on a cryostat, thaw mounted onto slides, and stored at −80° C. until stained. After staining, the slides were fixed in 4% paraformaldehyde, rinsed in phosphate buffer (0.1 mol/L; pH 7.2), and mounted in Prolong. The images were acquired using a Zeiss 510 metalaser scanning confocal microscope equipped with a ×40 Plan-Apo 1.2 numerical aperture (water immersion) objective with a correction collar. The confocal image was recorded as 512×512×48 pixels with a scale of 0.45×0.45×0.37 μm per pixel. Each image cube was optically cut into 48 sections, and the sections that cut through the nucleus and cytoplasm were presented.
Targeting and internalization of fluorescent dendrimer conjugate. […]

Substance: G5-(Ac)82-(6-TAMRA)3-(FA)4 [G5-6T-FA]
- fluorescent cells in tumor tissue, confocal: significant number of fluorescent cells
